Measured values taken from PubChem BioAssay (NCI).
Some tests of the compounds listed are not included; inactive here does not mean inactive elsewhere.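 Interpolation was linear, between the two tested concentrations surrounding the appropriate level; five concentrations were tested over 48 hours in 96-well plates. The concentration for full growth arrest is given as TGI.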

Assays:
Experiment in all cases: DTP human tumour cell line panel, 48 h
RXF 393 renal = tested on: RXF 393 renal
NCI-H226 lung = tested on: NCI-H226 lung
SK-OV-3 ovarian = tested on: SK-OV-3 ovarian
COLO 205 colon = tested on: COLO 205 colon
NCI-H23 lung = tested on: NCI-H23 lung
SNB-19 CNS = tested on: SNB-19 CNS
HL-60(TB) leukemia = tested on: HL-60(TB) leukemia
K-562 leukemia = tested on: K-562 leukemia
M14 melanoma = tested on: M14 melanoma
CCRF-CEM leukemia = tested on: CCRF-CEM leukemia
SNB-75 CNS = tested on: SNB-75 CNS
NCI-H322M lung = tested on: NCI-H322M lung
MDA-MB-231 breast = tested on: MDA-MB-231 breast
UACC-257 melanoma = tested on: UACC-257 melanoma
PC-3 prostate = tested on: PC-3 prostate
TK-10 renal = tested on: TK-10 renal
T-47D breast = tested on: T-47D breast
KM12 colon = tested on: KM12 colon
MDA-MB-435 = tested on: MDA-MB-435
MDA-N = tested on: MDA-N
NCI/ADR-RES ovarian = tested on: NCI/ADR-RES ovarian
MCF7 breast = tested on: MCF7 breast
SN12C renal = tested on: SN12C renal
HT29 colon = tested on: HT29 colon
UACC-62 melanoma = tested on: UACC-62 melanoma
DU-145 prostate = tested on: DU-145 prostate
NCI-H460 lung = tested on: NCI-H460 lung
A549 NSCLC = tested on: A549 NSCLC
SK-MEL-28 melanoma = tested on: SK-MEL-28 melanoma
HOP-62 NSCLC = tested on: HOP-62 NSCLC
OVCAR-8 ovarian = tested on: OVCAR-8 ovarian
CAKI-1 renal = tested on: CAKI-1 renal
IGROV1 ovarian = tested on: IGROV1 ovarian
MALME-3M melanoma = tested on: MALME-3M melanoma
ACHN renal = tested on: ACHN renal
786-0 renal = tested on: 786-0 renal
LOX IMVI melanoma = tested on: LOX IMVI melanoma
HCC-2998 colon = tested on: HCC-2998 colon
RPMI-8226 leukemia = tested on: RPMI-8226 leukemia
OVCAR-3 ovarian = tested on: OVCAR-3 ovarian
SF-268 CNS = tested on: SF-268 CNS
HCT-116 colon = tested on: HCT-116 colon
SF-295 CNS = tested on: SF-295 CNS
SK-MEL-5 melanoma = tested on: SK-MEL-5 melanoma
HCT-15 colon = tested on: HCT-15 colon
U251 CNS = tested on: U251 CNS
SK-MEL-2 melanoma = tested on: SK-MEL-2 melanoma
UO-31 renal = tested on: UO-31 renal
OVCAR-4 ovarian = tested on: OVCAR-4 ovarian
EKVX NSCLC = tested on: EKVX NSCLC
OVCAR-5 ovarian = tested on: OVCAR-5 ovarian
SR leukemia = tested on: SR leukemia
SF-539 CNS = tested on: SF-539 CNS
NCI-H522 lung = tested on: NCI-H522 lung
MOLT-4 leukemia = tested on: MOLT-4 leukemia
A498 renal = tested on: A498 renal
SW-620 colon = tested on: SW-620 colon

Compound: O=C(CCCN1CCC(OC(=O)C(O)(c2ccccc2)C2CCCC2)CC1)c1ccccc1 (configuration not stated)
- TGI (RXF 393 renal): 28.4 µM
- TGI (NCI-H226 lung): 33.9 µM
- TGI (SK-OV-3 ovarian): 38.5 µM
- TGI (COLO 205 colon): 25.4 µM
- TGI (NCI-H23 lung): 32.8 µM
- TGI (SNB-19 CNS): 32 µM
- TGI (HL-60(TB) leukemia): 41.1 µM
- TGI (K-562 leukemia): 45.4 µM
- TGI (M14 melanoma): 26.8 µM
- TGI (CCRF-CEM leukemia): 42.3 µM
- TGI (SNB-75 CNS): 29.4 µM
- TGI (NCI-H322M lung): 30.2 µM
- TGI (MDA-MB-231 breast): 32.3 µM
- TGI (UACC-257 melanoma): 30.4 µM
- TGI (PC-3 prostate): 28.1 µM
- TGI (TK-10 renal): 29.6 µM
- TGI (T-47D breast): 40.3 µM
- TGI (KM12 colon): 29.2 µM
- TGI (MDA-MB-435): 32.4 µM
- TGI (MDA-N): 35.4 µM
- TGI (NCI/ADR-RES ovarian): 29.7 µM
- TGI (MCF7 breast): 34.5 µM
- TGI (SN12C renal): 30.3 µM
- TGI (HT29 colon): 13.3 µM
- TGI (UACC-62 melanoma): 32.4 µM
- TGI (DU-145 prostate): 31.6 µM
- TGI (NCI-H460 lung): 36.3 µM
- TGI (A549 NSCLC): 35.4 µM
- TGI (SK-MEL-28 melanoma): 34.7 µM
- TGI (HOP-62 NSCLC): 33.1 µM
- TGI (OVCAR-8 ovarian): 30.8 µM
- TGI (CAKI-1 renal): 38.5 µM
- TGI (IGROV1 ovarian): 32.6 µM
- TGI (MALME-3M melanoma): 28.7 µM
- TGI (ACHN renal): 29.3 µM
- TGI (786-0 renal): 30.8 µM
- TGI (LOX IMVI melanoma): 28 µM
- TGI (HCC-2998 colon): 31.2 µM
- TGI (RPMI-8226 leukemia): 49 µM
- TGI (OVCAR-3 ovarian): 27 µM
- TGI (SF-268 CNS): 36 µM
- TGI (HCT-116 colon): 27.9 µM
- TGI (SF-295 CNS): 31.8 µM
- TGI (SK-MEL-5 melanoma): 29.8 µM
- TGI (HCT-15 colon): 30.7 µM
- TGI (U251 CNS): 32.8 µM
- TGI (SK-MEL-2 melanoma): 30.9 µM
- TGI (UO-31 renal): 21.3 µM
- TGI (OVCAR-4 ovarian): 28 µM
- TGI (EKVX NSCLC): 32.5 µM
- TGI (OVCAR-5 ovarian): 28.4 µM
- TGI (SR leukemia): 37.6 µM
- TGI (SF-539 CNS): 32.1 µM
- TGI (NCI-H522 lung): 42.9 µM
- TGI (MOLT-4 leukemia): 43.7 µM
- TGI (A498 renal): 32.8 µM
- TGI (SW-620 colon): 36.3 µM
